From patent US20110245223A1, “HETEROCYCLIC COMPOUNDS” (Japan Tobacco Inc., priority 2005, published 2011)

The chains behind the UniProt entries cited, without tags or fusion partners.
UniProt P28845, whole entry: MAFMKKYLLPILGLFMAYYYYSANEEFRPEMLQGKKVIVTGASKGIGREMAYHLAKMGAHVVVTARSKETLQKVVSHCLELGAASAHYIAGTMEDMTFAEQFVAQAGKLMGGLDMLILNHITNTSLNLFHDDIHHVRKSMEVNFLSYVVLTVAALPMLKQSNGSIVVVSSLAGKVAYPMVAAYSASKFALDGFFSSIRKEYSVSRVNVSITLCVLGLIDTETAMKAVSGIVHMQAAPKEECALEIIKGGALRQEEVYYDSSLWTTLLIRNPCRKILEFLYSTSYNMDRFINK

Target: human HSD-1 (recombinant HSD-1) (Homo sapiens, UniProt P28845)
Experiment: HSD-1 (hydroxysteroid dehydrogenase 1) activity inhibitory action in vitro, SPA, conversion of cortisone to cortisol
Settings: read-out: hHSD1 (IC50 (nM)), recombinant human HSD-1 expressed using baculovirus system, 10 nM 3H cortisone, 500 μM NADPH, room temperature 90 to 120 min

Compound `CCONC(=O)N1CCC(n2ncc(C(=O)N3CCC(c4ccccc4C(F)(F)F)C3)c2C2(C)CC2)CC1` (stereo not shown) has an IC50 of under 30 nM.
